Results from patent publication US5288851A, “Renin inhibitors, processes for preparing them, methods for using them, and compositions containing them” (Warner-Lambert Company, priority 1992, dated 1994).

Chains of the proteins cited; added tags and fusions are not shown. Residues count along the entry.
UniProt P00797, 67-406 limits assumed: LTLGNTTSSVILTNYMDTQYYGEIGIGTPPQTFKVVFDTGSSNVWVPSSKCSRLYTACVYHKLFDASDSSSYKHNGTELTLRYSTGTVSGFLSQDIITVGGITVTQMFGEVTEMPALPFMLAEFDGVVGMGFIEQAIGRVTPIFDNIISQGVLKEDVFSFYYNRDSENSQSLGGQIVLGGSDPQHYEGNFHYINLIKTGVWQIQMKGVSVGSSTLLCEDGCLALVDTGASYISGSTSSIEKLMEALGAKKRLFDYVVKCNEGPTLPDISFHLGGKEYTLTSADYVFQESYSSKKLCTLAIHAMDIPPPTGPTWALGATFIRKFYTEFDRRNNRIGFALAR

molecular target: renin (Homo sapiens, UniProt P00797); test: in vitro renin inhibitory activity, radioimmunoassay for angiotensin I; format: biochemical; conditions: renin incubated two hours at 37° with substrate angiotensinogen; angiotensin I by radioimmunoassay; molar concentration causing 50% inhibition

IC50	SMILES
1 nM	O=C(N[C@@H](CC1CCCCC1)C(=O)C(F)(F)C(=O)NCCN1CCOCC1)[C@H](Cc1c[nH]cn1)NC(=O)[C@H](Cc1ccccc1)NS(=O)(=O)N1CCOCC1
6 nM	C=CC[C@H](NC(=O)[C@H](Cc1ccccc1)NS(=O)(=O)N1CCOCC1)C(=O)N[C@@H](CC(C)C)C(=O)C(F)(F)C(=O)NCCN1CCOCC1
20 nM	CNC(=S)NCCCC[C@H](NC(=O)[C@H](Cc1ccccc1)NS(=O)(=O)N(C)C)C(=O)N[C@@H](CC1CCCCC1)[C@@H](O)CC(=O)NCCN1CCOCC1
15 nM	COC(=O)C(NC(=O)[C@H](Cc1ccccc1)NS(=O)(=O)N1CCOCC1)C(=O)N[C@@H](CC(C)C)C(=O)C(F)(F)C(=O)NCCN1CCOCC1 (stereo partly shown)
25 nM	CCC(C)CNC(=O)C[C@H](O)[C@H](CC(C)C)NC(=O)[C@H](CC#N)NC(=O)[C@H](Cc1ccccc1)NS(=O)(=O)N1CCOCC1 (stereo partly shown)
0.9 nM	C=CC[C@H](NC(=O)[C@H](Cc1ccccc1)NS(=O)(=O)N1CCOCC1)C(=O)N[C@@H](CC1CCCCC1)C(=O)C(F)(F)C(=O)NCCN1CCOCC1
300 nM	CC(C)C[C@H](NC(=O)[C@H](Cc1c[nH]cn1)NC(=O)[C@H](Cc1ccccc1)NS(=O)(=O)N1CCOCC1)[C@@H](O)CC(=O)NCCN1CCOCC1

Further lines, the molecule ahead of its results:

SMILES	IC50
CC[C@H](C)CNC(=O)C[C@H](O)[C@H](CC(C)C)NC(=O)[C@H](Cc1cnc[nH]1)NC(=O)[C@H](Cc1ccccc1)NS(=O)(=O)N1CCNCC1	350 nM
CCC(C)CNC(=O)C[C@H](O)[C@H](CC(C)C)NC(=O)[C@H](Cc1cnc[nH]1)NC(=O)[C@H](Cc1ccccc1)NS(=O)(=O)N1CCCC1 (stereo partly shown)	58 nM
C=CC[C@H](NC(=O)[C@H](Cc1ccccc1)NS(=O)(=O)N1CCOCC1)C(=O)N[C@@H](CC(C)C)C(O)C(F)(F)C(=O)NCCN1CCOCC1 (stereo partly shown)	11 nM
CCC(C)CNC(=O)C[C@H](O)[C@H](CC(C)C)NC(=O)[C@H](Cc1cnc[nH]1)NC(=O)[C@H](Cc1ccccc1)NC(=O)N1CCCC1 (stereo partly shown)	490 nM
CCC(C)CNC(=O)C[C@H](O)[C@H](CC(C)C)NC(=O)[C@H](Cc1cnc[nH]1)NC(=O)[C@H](Cc1ccccc1)NS(=O)(=O)N1CCOCC1 (stereo partly shown)	20 nM
CCC(C)CNC(=O)C[C@H](O)[C@@H](NC(=O)[C@H](Cc1c[nH]cn1)NC(=O)[C@H](Cc1ccccc1)NS(=O)(=O)N1CCOCC1)C1CCCCC1 (stereo partly shown)	4.8 nM
CC(C)C[C@H](NC(=O)[C@H](Cc1c[nH]cn1)NC(=O)[C@H](Cc1ccccc1)NS(=O)(=O)N(C)C)[C@@H](O)CC(=O)NCCN1CCOCC1	900 nM
CCC(C)CNC(=O)C[C@H](O)[C@H](CC(C)C)NC(=O)C(NC(=O)[C@H](Cc1ccccc1)NS(=O)(=O)N(C)C)C(=O)OC (stereo partly shown)	25 nM
CCC(C)CNC(=O)C[C@H](O)[C@H](CC(C)C)NC(=O)[C@H](Cc1cnc[nH]1)NC(=O)[C@H](Cc1ccccc1)NC(=O)N1CCOCC1 (stereo partly shown)	330 nM
CCC(C)CNC(=O)C[C@H](O)[C@H](CC(C)C)NC(=O)[C@H](Cc1cnc[nH]1)NC(=O)[C@H](Cc1ccccc1)NC(=O)CN1CCOCC1 (stereo partly shown)	250 nM
CCC(C)CNC(=O)C[C@H](O)[C@H](CC(C)C)NC(=O)[C@H](Cc1c[nH]cn1)NC(=O)[C@H](Cc1ccccc1)NC(=O)N1CCN(C(=O)OCc2ccccc2)CC1 (stereo partly shown)	140 nM
CN(C)S(=O)(=O)N[C@@H](Cc1ccccc1)C(=O)N[C@@H](Cc1c[nH]cn1)C(=O)N[C@@H](CC1CCCCC1)[C@@H](O)CC(=O)NCCN1CCOCC1	20 nM
CC[C@H](C)CNC(=O)C[C@H](O)[C@H](CC(C)C)NC(=O)[C@H](Cc1cnc[nH]1)NC(=O)[C@H](Cc1ccccc1)NS(=O)(=O)N1CCN(C)CC1	150 nM
CC(=O)NCCCC[C@H](NC(=O)[C@H](Cc1ccccc1)NS(=O)(=O)N1CCOCC1)C(=O)N[C@@H](CC(C)C)C(O)C(F)(F)C(=O)NCCN1CCOCC1 (stereo partly shown)	3000 nM
COC(=O)C(NC(=O)[C@H](Cc1ccccc1)NS(=O)(=O)N1CCOCC1)C(=O)N[C@@H](CC(C)C)C(O)C(F)(F)C(=O)NCCN1CCOCC1 (stereo partly shown)	40 nM
